PubChem BioAssay (NCI)
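Dose response: 5 concentrations. Exposure: 48 h. Format: 96-well plates. Endpoint: linear interpolation; highest concentration if not reached. GI50 = concentration required for 50% inhibition of growth. The concentration for full growth arrest is given as TGI.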

How the values were obtained:
Test in all cases: growth of human tumour cells (NCI), 48 h
[1] = test system: M19-MEL melanoma
[2] = test system: RPMI-8226 leukemia
[3] = test system: IGROV1 ovarian
[4] = test system: CCRF-CEM leukemia
[5] = test system: SR leukemia
[6] = test system: KM20L2 colon
[7] = test system: K-562 leukemia
[8] = test system: OVCAR-4 ovarian
[9] = test system: TK-10 renal
[10] = test system: HT29 colon
[11] = test system: SW-620 colon
[12] = test system: KM12 colon
[13] = test system: MALME-3M melanoma
[14] = test system: SF-268 CNS
[15] = test system: SF-539 CNS
[16] = test system: SK-MEL-28 melanoma
[17] = test system: NCI-H23 lung
[18] = test system: DMS 273 small cell lung
[19] = test system: U251 CNS
[20] = test system: UO-31 renal
[21] = test system: DMS 114 small cell lung
[22] = test system: SF-295 CNS
[23] = test system: LOX IMVI melanoma
[24] = test system: A498 renal
[25] = test system: SN12C renal
[26] = test system: 786-0 renal
[27] = test system: HOP-62 NSCLC

`CCCCOP(=O)(OCCCC)N1CCCC1C(=O)O` (stereo not drawn) gave a TGI [1] greater than 100 µM, a GI50 [2] greater than 100 µM and a TGI [2] greater than 100 µM. The GI50 [3] was greater than 100 µM, the TGI [3] was greater than 100 µM and the GI50 [4] was greater than 100 µM. The TGI [4] was greater than 100 µM, the GI50 [5] was greater than 100 µM and the TGI [5] was greater than 100 µM. The GI50 [6] was greater than 100 µM, the TGI [6] was greater than 100 µM and the GI50 [7] was greater than 100 µM. For the same compound, the TGI [7] was greater than 100 µM, the GI50 [8] was greater than 100 µM and the TGI [8] was greater than 100 µM. For the same compound, the GI50 [9] was greater than 100 µM, the TGI [9] was greater than 100 µM and the GI50 [10] was greater than 100 µM. The TGI [10] was greater than 100 µM, the GI50 [11] was greater than 100 µM and the TGI [11] was greater than 100 µM. It also gave a GI50 [12] greater than 100 µM, a TGI [12] greater than 100 µM and a GI50 [13] greater than 100 µM. For the same compound, the TGI [13] was greater than 100 µM, the GI50 [14] was greater than 100 µM and the TGI [14] was greater than 100 µM. It also gave a GI50 [15] greater than 100 µM, a TGI [15] greater than 100 µM and a GI50 [16] greater than 100 µM. For the same compound, the TGI [16] was greater than 100 µM, the GI50 [17] was greater than 100 µM and the TGI [17] was greater than 100 µM. The GI50 [18] was greater than 100 µM, the TGI [18] was greater than 100 µM and the GI50 [19] was greater than 100 µM. For the same compound, the TGI [19] was greater than 100 µM, the GI50 [20] was greater than 100 µM and the TGI [20] was greater than 100 µM. For the same compound, the GI50 [21] was greater than 100 µM, the TGI [21] was greater than 100 µM and the GI50 [22] was greater than 100 µM. The TGI [22] was greater than 100 µM, the GI50 [23] was greater than 100 µM and the TGI [23] was greater than 100 µM. It also gave a GI50 [24] greater than 100 µM, a TGI [24] greater than 100 µM and a GI50 [25] greater than 100 µM. For the same compound, the TGI [25] was greater than 100 µM, the GI50 [26] was greater than 100 µM and the TGI [26] was greater than 100 µM. It also gave a GI50 [27] greater than 100 µM and a TGI [27] greater than 100 µM.
